From US9981961B2, “Deoxycytidine kinase inhibitors” (The Regents of the University of California, priority 2013, dated 2018) come the findings set out here.

Sequences of proteins named here, by UniProt entry; tags and fusion partners are left off.
UniProt P27707, whole entry: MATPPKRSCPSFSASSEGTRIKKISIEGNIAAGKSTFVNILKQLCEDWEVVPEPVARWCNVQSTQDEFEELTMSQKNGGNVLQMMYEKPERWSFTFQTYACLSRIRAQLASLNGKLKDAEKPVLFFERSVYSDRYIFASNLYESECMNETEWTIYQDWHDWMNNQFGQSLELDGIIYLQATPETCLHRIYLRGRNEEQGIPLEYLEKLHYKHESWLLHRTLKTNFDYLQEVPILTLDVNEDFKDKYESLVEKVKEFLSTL

The structures appear in SMILES notation. pIC50: −log10 of the molar value.

The target of this assay is dCK in CCRF-CEM cells (Homo sapiens, UniProt P27707).

With `COCCOCCOCCOc1cc(-c2nc(C(C)Sc3nc(N)cc(N)n3)c(C)s2)ccc1OCCNS(C)(=O)=O` (centres unmarked), the pIC50 is 7.21.

Take `Cc1sc(-c2ccc(OCCNS(C)(=O)=O)c(OCCNS(C)(=O)=O)c2)nc1C(C)Sc1nc(N)cc(N)n1` (centres unmarked): the pIC50 was 6.70.
